Laboratory results: US7317028B2, “Cell differentiation inducer” (Schering Aktiengesellschaft, priority 1996, dated 2008)

System: A2780 cells
Experiment: Test for induction of differentiation in A2780 cells (ALP activity, ALPmin)
Type: cell-based
Conditions: Homo sapiens, A2780, 72 h, read-out: ALPmin
Description: Increase of alkaline phosphatase (ALP) activity is known as an indicator for differentiation of human colon cancer cells. […] Thus, differentiation inducing action was evaluated using ALP activity as an indicator.
To each well of a 96-well plate was placed 0.1 mL of A2780 cells (15,000 cells/well) and the next day was added 0.1 mL of a sequential dilute of test solution with the medium. […] The reaction was quenched with 0.05 mL/well of 3N sodium hydroxide aq. For each well, an absorbance at 405 nm was measured to determine the minimum concentration of the drug inducing increase of ALP activity (ALPmin).

## O=C(NCc1ccc(C(=O)Nc2ccccc2O)cc1)OCc1cccnc1 [Example 82, N-(2-hydroxyphenyl)-4-[N-(pyridin-3-yl)methoxycarbonylaminomethyl]benzamide]
  minimal effective concentration: 1 µM
